For this test, the system named is Vcap cells (androgen receptor (+) prostate cancer cells). The test is described as follows: CTG cell proliferation assay (CellTiter-Glo), compounds alone or in combination. Background: In ATP-based viability assays light output follows the ATP content of the culture.
[1] abbreviates: 1 μM tested compound in combination with 1 μM B001 and 1 μM Abiraterone acetate.
Setting [2] is: 1 μM tested compound in combination with 1 μM B001 and 1 μM Galeterone.
[3] abbreviates: 1 μM tested compound in combination with 1 μM B001 and 1 μM prednisone.
Setting [4] is: 1 μM tested compound in combination with 1 μM B001 and 1 μM prednisone and 1 μM Abiraterone acetate.
[5] abbreviates: 1 μM tested compound in combination with 1 μM B001 and 1 μM prednisone and 1 μM ODM-201.
Setting [6] is: 10 μM tested compound in combination with 1 μM B001 and 1 μM Abiraterone acetate.
Where [7] appears, read: 10 μM tested compound in combination with 1 μM B001 and 1 μM Galeterone.
The mark [8] stands for this setting: 10 μM tested compound in combination with 1 μM B001 and 1 μM ODM-201.
Setting [9] is: 10 μM tested compound in combination with 1 μM B001 and 1 μM prednisone.
Where [10] appears, read: 10 μM tested compound in combination with 1 μM B001 and 1 μM prednisone and 1 μM Abiraterone acetate.
The mark [11] stands for this setting: 10 μM tested compound in combination with 1 μM B001 and 1 μM prednisone and 1 μM Galeterone.
[12] abbreviates: 10 μM tested compound in combination with 1 μM B001 and 1 μM prednisone and 1 μM ODM-201.

Data on two compounds can be found in patent US20240139156A1, “COMBINATION TREATING PROSTATE CANCER, PHARMACEUTICAL COMPOSITION AND TREATMENT METHOD” (KANGPU BIOPHARMACEUTICALS, LTD., priority 2017, published 2024).

Consider `[2H]C([2H])([2H])NC(=O)c1ccc(N2C(=S)N(c3ccc(C#N)c(C(F)(F)F)c3)C(=O)C2(C)C)cc1F` [AR1-1], for which the “Survival rate of Vcap cells” value was 48.5% under setting [1]; 49.4% under setting [2]; 47.6% under setting [3]; 49.5% under setting [4]; 46.7% under setting [5]; 44.1% under setting [6]. Moreover, the “Survival rate of Vcap cells” value is, setting by setting: under setting [7], 48.6%; under setting [8], 46.9%; under setting [9], 40.0%; under setting [10], 41.2%; under setting [11], 41.9%; under setting [12], 44.2%.
In the case of `[2H]C([2H])([2H])NC(=O)c1ccc(N2C(=S)N(c3cnc(C#N)c(C(F)(F)F)c3)C(=O)C23CCC3)cc1F` [AR1-2], the “Survival rate of Vcap cells” value under setting [1] was determined as 47.3%; the “Survival rate of Vcap cells” value under setting [2] is on record as 49.9%; the “Survival rate of Vcap cells” value (1 μM tested compound in combination with 1 μM B001 and 1 μM ODM-201) is given as 46.8%; the “Survival rate of Vcap cells” value under setting [3] stood at 55.1%; the “Survival rate of Vcap cells” value under setting [4] came to 59.5%; the “Survival rate of Vcap cells” value (1 μM tested compound in combination with 1 μM B001 and 1 μM prednisone and 1 μM Galeterone) was 58.5%. Moreover, the “Survival rate of Vcap cells” value by setting is: under setting [5], 62.6%; under setting [6], 35.5%; under setting [7], 38.0%; under setting [8], 41.3%; under setting [9], 43.1%; under setting [10], 44.5%. Further, the “Survival rate of Vcap cells” value runs as follows: under setting [11], 44.4%; under setting [12], 50.8%.
